Source: ChEMBL document CHEMBL2016541, “Synthesis and biological evaluation of isoxazolo[4,5-d]pyridazin-4-(5H)-one analogues as potent anti-inflammatory agents” (Bioorg Med Chem, 2012)

Assay: Selectivity ratio of IC50 for ovine COX1 to IC50 for recombinant human COX2

Q: Which Ratio IC50 does the source give for `CCn1c(Cn2nc(Cc3ccc([N+](=O)[O-])cc3)c3onc(C)c3c2=O)n[nH]c1=S` here?
A: > 10

Q: For `CCn1c(Cn2nc(Cc3ccc(OC)cc3)c3onc(C)c3c2=O)n[nH]c1=S`, which Ratio IC50 is on record?
A: 9.15
